The target in this experiment is T1, PfDHODH (Plasmodium falciparum, UniProt Q08210).
T1 sequence (Q08210 1-569): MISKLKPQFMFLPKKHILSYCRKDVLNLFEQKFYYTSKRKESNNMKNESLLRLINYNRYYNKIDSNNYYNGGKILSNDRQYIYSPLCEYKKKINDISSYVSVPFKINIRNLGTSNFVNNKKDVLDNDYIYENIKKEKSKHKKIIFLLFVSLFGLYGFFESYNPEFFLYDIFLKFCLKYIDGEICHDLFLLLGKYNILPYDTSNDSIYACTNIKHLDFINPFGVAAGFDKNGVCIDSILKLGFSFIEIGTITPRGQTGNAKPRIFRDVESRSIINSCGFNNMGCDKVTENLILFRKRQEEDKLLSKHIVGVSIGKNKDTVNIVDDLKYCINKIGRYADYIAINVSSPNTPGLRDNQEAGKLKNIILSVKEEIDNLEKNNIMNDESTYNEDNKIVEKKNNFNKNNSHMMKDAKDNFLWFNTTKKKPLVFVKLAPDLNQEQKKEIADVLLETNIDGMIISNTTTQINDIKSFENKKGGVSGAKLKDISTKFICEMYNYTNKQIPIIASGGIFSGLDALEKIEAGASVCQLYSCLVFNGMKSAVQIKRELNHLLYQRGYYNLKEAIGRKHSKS
Kind of experiment: biochemical. More on the design: PfDHODH enzyme inhibition IC50. The note with it: read-out: >50.

Turning to `Cc1cc(Nc2ccc3ccccc3c2)n2ncnc2n1` [TCMDC-125840], the IC50 was 5 nM.

These data come from article PMC5084075 (ACS Central Science, 2016).
